For this assay, the target named is T1, Histone-lysine N-methyltransferase EHMT2 (Homo sapiens, UniProt Q96KQ7).
T1 sequence (Q96KQ7 whole entry): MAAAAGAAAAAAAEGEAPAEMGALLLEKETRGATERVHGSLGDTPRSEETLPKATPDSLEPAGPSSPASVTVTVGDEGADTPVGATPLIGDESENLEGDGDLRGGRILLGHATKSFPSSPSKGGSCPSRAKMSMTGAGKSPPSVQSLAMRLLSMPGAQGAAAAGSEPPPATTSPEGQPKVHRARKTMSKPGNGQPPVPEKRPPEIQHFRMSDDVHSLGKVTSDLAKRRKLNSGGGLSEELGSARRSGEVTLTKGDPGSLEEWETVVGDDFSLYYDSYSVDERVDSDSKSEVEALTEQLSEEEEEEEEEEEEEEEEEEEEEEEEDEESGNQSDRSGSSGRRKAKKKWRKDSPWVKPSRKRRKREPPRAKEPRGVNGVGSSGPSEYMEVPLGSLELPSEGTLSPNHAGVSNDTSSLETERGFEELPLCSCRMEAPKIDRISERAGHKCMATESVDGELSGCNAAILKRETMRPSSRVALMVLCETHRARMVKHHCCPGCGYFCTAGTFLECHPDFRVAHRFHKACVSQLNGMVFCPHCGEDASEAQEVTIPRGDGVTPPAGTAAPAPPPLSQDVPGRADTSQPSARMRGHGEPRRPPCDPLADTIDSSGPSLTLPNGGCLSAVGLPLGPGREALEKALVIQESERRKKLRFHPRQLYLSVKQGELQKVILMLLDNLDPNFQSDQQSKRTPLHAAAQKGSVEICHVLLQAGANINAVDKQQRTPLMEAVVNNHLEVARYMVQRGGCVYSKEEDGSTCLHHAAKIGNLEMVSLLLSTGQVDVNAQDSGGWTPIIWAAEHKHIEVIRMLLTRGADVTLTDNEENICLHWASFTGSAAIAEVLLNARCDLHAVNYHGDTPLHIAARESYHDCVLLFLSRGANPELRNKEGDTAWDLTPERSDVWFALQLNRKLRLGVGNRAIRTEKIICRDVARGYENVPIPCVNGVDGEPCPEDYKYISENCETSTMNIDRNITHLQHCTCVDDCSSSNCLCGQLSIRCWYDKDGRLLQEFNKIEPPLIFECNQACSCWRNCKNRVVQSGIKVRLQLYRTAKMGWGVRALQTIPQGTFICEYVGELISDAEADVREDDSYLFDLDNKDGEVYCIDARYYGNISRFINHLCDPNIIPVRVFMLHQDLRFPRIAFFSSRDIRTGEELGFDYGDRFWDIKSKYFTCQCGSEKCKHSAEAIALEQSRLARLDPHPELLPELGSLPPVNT
The assay can be described thus: Inhibition G9a (unknown origin).

This note sets out measurements from ChEMBL document CHEMBL4400539, “Discovery of a Novel Chemotype of Histone Lysine Methyltransferase EHMT1/2 (GLP/G9a) Inhibitors: Rational Design, Synthesis, Biological Evaluation, and Co-crystal Structure” (J Med Chem, 2019).

SMILES strings stand for the structures.

With `O=C(O)c1ccc2c(c1)nc(NC(=O)c1ccccc1)n2CCCc1ccccc1`, inhibition was half-maximal at 1500 nM (IC50).

A word on the IC50: it is the midpoint of a concentration-inhibition curve. A high value points to lower potency.
